Bioassay records (PubChem)
miR-21 reporter – miR-21 reporter, rising signal | HeLa miR-21 FLuc reporter, luciferase, 48 h | Potency, µM (top dose mostly 38.3 µM) | 340,000 tested, under 10 active | AID 2288; active = well fitted rising curve with a large enough effect; inconclusive = small, poorly fitted or top-dose-only effect; inactive = no such curve, though single readings can be large or run the other way;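 note: miR-21 action dims this reporter so a rising signal means less miR-21 action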
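HeLa miR-21-FLuc reporter line, endogenous miR-21; 2000 cells/well in DMEM/10% FBS; compound titration up to ~40uM final, 48 h, 37 degree Celsius; luciferase detection reagent, 15 min lysis, CCD luminescence.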
ClpP mod – qHTS Assay for Activators of ClpP | ATP-dependent Clp protease proteolytic subunit (Bacillus subtilis (strain 168)), P80244 | purified B. subtilis ClpP, FRET peptide cleavage, 20 min | Potency, µM (highest dose often 57.5 µM) | actives 1.9% (n = 340,000); active = well fitted falling curve with a large enough effect; inconclusive = small, poorly fitted or top-dose-only effect; inactive = no such curve, though single readings can be large or run the other way; also: the source files actives as falling curves though it sought activators and does not explain the sign; nearly all actives have a fitted effect of over 65% in size
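Buffer: 100 mM Tris/HCl pH8, 100 mM KCl, 0.05% low protease BSA, 2.5% glycerol, 0.01% Tween-20. ClpP 10 microg/mL final; 20 min RT; delta FRET normalized to ADEP and DMSO controls.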
p53 reactivator – mutant p53 re-activation in reporter cells. Potency, µM (highest dose often 92.2 µM), most hits filed as activators. H1299 p53-A138V BP100-luciferase reporter, luminescence, 24 h. actives 0.063% (n = 320,000); also: nearly all actives have a fitted effect of over 45% in size
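p53-null H1299 cells stably carrying temperature-sensitive p53-A138V and a BP100-luciferase reporter were pinned with compounds (4-point, 1:5 series) and held 24 hrs at 37 deg C. Luminescence was read 10 min after detection reagent.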
Nrf2 inh – blocks Nrf2 signaling | A549 ARE-Fluc reporter, luciferase luminescence, 18-24 h | Potency, µM (top dose mostly 46 µM), most hits filed as inhibitors | actives 2.1% (n = 360,000) | AID 504444; also: nearly all actives have a fitted effect of over 60% in size
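Quantitative HTS in A549 cells stably bearing an antioxidant response element-firefly luciferase construct. Inhibition of Nrf2-driven transcription was scored by luminescence after 18-24 h of compound exposure at 37 °C.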
A549 viability – counter-screen for Nrf2 inhibitors: cytotoxicity in A549 cells; A549 ARE-Fluc cells, CellTiter-Fluor viability, 18-24 h; actives 0.16% (n = 390,000); AID 504648; Potency, µM (series often up to 46 µM), actives largely listed as inhibitors
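A549 ARE_Fluc cells in 5% FBS OPTI-MEM were exposed to compounds in concentration-response for 18-24 h at 37 deg C. Viability was read by CellTiter-Fluor fluorescence (Ex 405/Em 525) after 30 min, before the luciferase read.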
Nrf2 activator – Nrf2 pathway activation | actives 0.31% (n = 410,000) | Potency, µM (series often up to 46.1 µM), actives largely listed as activators | AREc32 ARE-luciferase reporter (MCF7-derived line), luminescence, 24 h; also: nearly all actives have a fitted effect of over 65% in size
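Each well held 1000 AREc32 cells, which were incubated with compound for 24 hr at 37 deg C after overnight attachment, and ARE reporter activity was quantified by firefly luciferase luminescence.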
ClpP validation – Bacillus subtilis ClpP inhibition, validated hit. Potency, µM (highest dose often 57.5 µM), actives largely listed as inhibitors. purified B. subtilis ClpP, FRET-FV substrate cleavage, 20 min. shares compounds with ClpP mod. AID 743245. actives 40% (n = 470); also: nearly all actives have a fitted effect of over 70% in size
Numbers stand for hits; – = inactive; ? = inconclusive; · = not tested or not shown; ! = a repeat was not active; [ ] = remark or other dose. The list is not random: actives were taken first. Their share in the collection is about 3.7%. Unless noted, calls follow the shape of the dose curve; as a rule, active = well fitted curve in the direction sought with a large enough effect; inconclusive = small, poorly fitted or top-dose-only effect, or another doubt; inactive = no such curve, though single readings can be large; an effect the other way counts as inactive or inconclusive.

SMILES	miR-21 reporter	ClpP mod	p53 reactivator	Nrf2 inh	A549 viability	Nrf2 activator	ClpP validation
Cc1cc(C)cc(N(CC(=O)Nc2ccc(-c3nc4ccc(C)cc4s3)cc2)S(C)(=O)=O)c1	–	10µM	?	?	–	–	19µM
CC1=C(c2ccc(C)c(C)c2)S(=O)(=O)N(Cc2ccc(C(=O)NC(C)c3ccccc3)cc2)C1=O (stereo not given)	–	5.6µM	·	–	–	–	34µM
CCC(C)NC(=O)Cn1c(=O)n(CCCC(=O)NCc2ccc(C)cc2)c(=O)c2ccccc21 (stereo not given)	–	–	·	–	–	–	·
CCc1cnc2c(c1SCc1ccccc1C)c(=O)n(C)c(=O)n2C	–	–	·	·	–	–	·
Cc1cc(C)cc(-n2ccn(CC(=O)Nc3cc(C)ccc3C)c(=O)c2=O)c1	–	–	·	–	–	–	·
O=C(Cn1c(=O)sc2ccccc21)NCc1ccccn1	–	–	–	–	–	–	·
O=C(Cn1c(=O)sc2ccccc21)NCCOc1ccccc1F	–	7.9µM	–	–	–	–	–
CC(C)(C)OC(=O)N1CCc2onc(-c3ccccc3[N+](=O)[O-])c2C1=O	·	–	·	·	·	·	·
CC(C)CCNC(=O)COc1ccc2c(c1)C(=O)CC(C)(C)O2	–	28µM	–	–	–	–	15µM
CCc1ccc(NC(=O)CSC2=Nc3ccccc3C3=NC(CCC(=O)NCc4ccco4)C(=O)N23)cc1 (stereo not given)	–	–	·	·	–	–	·
COc1ccc2cc(C(=O)NCc3ccco3)c(=O)oc2c1	–	10µM	?	–	–	–	22µM
O=C(NC1CCCCCC1)c1cc2ccccc2oc1=O	–	·	?	–	–	–[9.22 µM]	·
O=C(NCc1ccco1)c1cc2ccc(O)cc2oc1=O	–	–	–	–	–	–	·
COc1ccc2cc(C(=O)NC3CCCCC3)c(=O)oc2c1	–	2.2µM	–	–	–	–	22µM
c1ccc2c(N3CCOCC3)nc(N3CCOCC3)nc2c1	–	3.2µM	–	–	–	–	24µM
c1ccc(CN2CCN(c3nc(N4CCOCC4)c4ccccc4n3)CC2)cc1	·	–	·	–	–	–	·
CC(=O)N1c2ccc(S(=O)(=O)N3CCCCC3)cc2CC1C(=O)NCc1ccc(N(C)C)cc1 (stereo not given)	–	–	–	–	–	–	·
CCc1cc(N2CCOCC2)cc2c1[nH]c1ccccc12	–	10µM	–	·	–	–	17µM
COCCn1cc(C(=O)N2CCCC(C)C2)c2c3ccccc3n(C)c2c1=O (stereo not given)	–	3.2µM	–	·	–	–	15µM
Cc1cc(C)cc(N2C(=O)CS(=O)(=O)C23C(=O)N(Cc2ccc(F)cc2)c2ccc(C)cc23)c1 (stereo not given)	–	–	·	?	–	–	·
Cc1ccc2nc(-c3ccco3)c(Nc3ccccc3)n2c1	–	3.2µM!	–	?	–	–	?
COc1cccc(-c2cnc(C(O)c3ccc(Cl)c(Cl)c3)[nH]2)c1 (stereo not given)	·	–	·	·	·	–	·
COc1ccc(CNC(=O)c2ccc3c(c2)N(C)C(=O)C2CCCCN32)cc1OC (stereo not given)	–	–	·	·	–	–	·
O=C(NC1CCCCC1)N(Cc1cc2cc3c(cc2[nH]c1=O)OCCO3)CC1CCCO1 (stereo not given)	–	10µM	–	?	?	–	?
Brc1ccc(CNCCCSc2nnnn2-c2ccccc2)cc1	–	–	·	–	–	–	·
SMILES	miR-21 reporter	ClpP mod	p53 reactivator	Nrf2 inh	A549 viability	Nrf2 activator	ClpP validation
CC(C)(C)C1CCc2c(sc(NC(=O)c3ccco3)c2C(N)=O)C1 (stereo not given)	–	–	–	–	–	–	31µM
O=C(Nc1sc2c(c1C(=O)NC1CCCCC1)CCC2)c1ccco1	–	–	·	·	–	–	?
Cc1ccccc1NC(=O)c1c(NC(=O)c2ccco2)sc2c1CCC(C(C)(C)C)C2 (stereo not given)	–	–	·	–	–	–	·
Cc1ccc(NC(=O)CSCC(=O)NC2=NCCS2)cc1	·	–	–	–	–	–	·
Cc1ccc(C(=O)Nc2cccc(C(F)(F)F)c2)cc1NC(=O)c1nccnc1N	–	–	–	–	–	–	?
O=c1[nH]c2cc(Cl)ccc2c(O)c1-c1cccc(Oc2ccccc2)c1	·	–	·	–	–	–	·
O=c1[nH]c2cc(Cl)ccc2c(O)c1-c1ccc(Oc2ccccc2)cc1	·	·	·	·	·	·	–
CCOc1ccc(NC(=O)Cn2ncc3c2-c2cc(C)ccc2OC3)cc1	–	–	·	–	–	–	·
CCOc1ccccc1-c1nc2c(C(C)(C)C)nn(C)c2c(=O)[nH]1	–	·	–	·	·	·	·
CCOc1ccccc1-c1nc2c([nH]1)c(=O)n(C)c(=O)n2C	–	3.5µM	–	–	–	–	22µM
Cc1cc(=O)oc2cc(OCC(=O)Nc3ccc(N4CCC(C)CC4)cc3)ccc12	–	–	–	–	–	–	·
Cc1c(C)c2ccc(OCC(=O)Nc3ccc(N4CCC(C)CC4)cc3)cc2oc1=O	–	–	–	–	–	–	–
CCCCN(CC)c1nc(-c2ccccc2F)nc2ccccc12	–	–	·	·	–	–	·
CCCC1CCC(c2ccc(C(N)=O)cc2)CC1 (stereo not given)	–	–	–	–	–	–	–
CCCCCC1CCC(c2ccc(C(N)=O)cc2)CC1 (stereo not given)	–	–	–	–	–	–	·
CN(CC(=O)Nc1cccc(F)c1)C(=O)c1cc(-c2ccccc2)nc2ccccc12	·	–	–	–	–	–	·
COc1ccc(-c2cc(C(=O)N(C)CC(=O)Nc3cccc(F)c3)c3ccccc3n2)cc1	·	6.3µM	–	–	–	–	24µM
COc1ccc2sc(N(Cc3cccnc3)C(=O)c3ccc4c(c3)OCCO4)nc2c1	–	?	·	·	–	–	·
Cc1cccc(C)c1NC(=O)COC(=O)COc1ccc2c(C)cc(=O)oc2c1	–	–	–	–	–	–	–
CCOC(=O)C1=NS(=O)(=O)NC(C)=C1	·	?	–	–	–	–	·
Fc1cc(F)c2nc(Nc3nc4cc5c(cc4s3)OCO5)sc2c1	–	8.9µM	?	?	–	?	?
C[C@H]1CN([C@@H](C)CO)C(=O)CCCn2nncc2CO[C@@H]1CN(C)S(=O)(=O)c1ccc(Oc2ccccc2)nc1	·	–	·	·	·	–	·
CCS(=O)(=O)c1ccccc1C(=O)Nc1ccc(-c2nc3ccccc3s2)cc1	–	–	·	·	–	–	·
